Data reported in patent US20160040126A1, “REGULATION OF DIFFERENTIATION INTO DOPAMINERGIC NEURONS BY METALLOPROTEASE” (Korea University Research and Business Foundation, priority 2012, published 2016).

Assays:
[1] = tested on: midbrain neurons derived from normal mice and D2R−/− mice; test: Differentiation of midbrain neurons into dopaminergic neural cells (TH immunostaining: number of TH-positive cells, neurite length, neurite number); format: cell-based
Method: Midbrain neurons derived from normal mice and D2R−/− mice were treated with each of EGF, EGF+haloperidol, EGF+AG1478 and EGF+PD98059, and then stained with TH by an immunostaining technique. Then, the number of TH-positive cells, the length of neurites and the number of neurites in the midbrain neurons were compared between EGF, EGF+haloperidol, EGF+AG1478 and EGF+PD98059 to determine the abilities to induce differentiation into dopaminergic neural cells.
Then, the number of TH-positive cells, the length of neurites and the number of neurites in the midbrain neurons were compared to determine the abilities to induce differentiation into dopaminergic neural cells.

ERK = test: Phosphorylation of ERK in midbrain neurons; format: cell-based, mice

## CCCN1CCC[C@@H]2Cc3n[nH]cc3C[C@H]21 [quinpirole]
[1]
  synergistic effect with EGF on the increase in the number of dopaminergic neural cells: no synergistic effect
ERK
  phosphorylation of ERK by the agent: 194%
